Test: Inhibition of virion associated RT activity relative to untreated, infected control in MT2 cells infected with HIV-1 237288 strain

In the case of `CC(C)CN(C[C@@H](O)[C@H](Cc1ccccc1)NC(=O)O[C@H]1CCOC1)S(=O)(=O)c1ccc(N)cc1` [VX-478], the IC50 is reported as 30 nM.

From BindingDB's records for doi:10.1021/jm000013n (The University of Queensland, 2000)
